Measured values published in patent US20240374749A1, “ANTIBODY-EXATECAN CONJUGATES” (Glykos Finland Oy, priority 2023, published 2024).

Assays:
[1] = test system: HER2+ SK-BR-3 breast cancer cells; assay: In vitro cytotoxicity assay, Example 4 (FIG. 3A); assay type: cell-based; details: SK-BR-3 cells
Procedure: HER2+ SK-BR-3 breast cancer cells (ATCC) and CD33+ MOLM-13 leukemia cells (DSMZ, German Collection of Microorganisms and Cell Cultures) were cultured essentially according to the providers' instructions. […] FIG. 3A: HER2+ SK-BR-3 breast cancer cells were incubated with trastuzumab-exatecan ADC TRExM01, trastuzumab-deruxtecan ADC TRDxM01 and free exatecan payload (provided as mesylate salt). […] FIG. 3B: CD33+ MOLM-13 leukemia cells were incubated with lintuzumab-exatecan ADC LNExM01 and lintuzumab-deruxtecan ADC TRDxM01.

[2] = test system: HER2+ SKOV-3 ovarian cancer cells
Procedure: (§1) HER2+ SK-BR-3 breast cancer cells (ATCC), HCC1954 breast cancer cells (CRL-2338, ATCC), JIMT-1 breast cancer cells (DSMZ) and SKOV-3 ovarian cancer cells (ATCC) were cultured essentially according to the providers' instructions. After incubation with ADCs, cell viability was determined using PrestoBlue reaction using manufacturer's instructions. Cell viability data data was transferred to GraphPad Prism to determine IC50 values. Exatecan (mesylate salt) and DXd (free deruxtecan payload) were purchased from MedChemExpress.

[3] = test system: HER2+ JIMT-1 breast cancer cells
Procedure: as §1

[4] = test system: HER2+ HCC1954 breast cancer cells
Procedure: as §1

[5] = test system: HER2+ SK-BR-3 breast cancer cells
Procedure: as §1

TRDxM: trastuzumab-deruxtecan ADC DAR=8 [reference compound]
IC50 [1]: 0.4 nM | cytotoxic activity (in words) [2]: comparable activity to TREXM | cytotoxic activity (in words) [3]: comparable activity to TREXM | cytotoxic activity (in words) [4]: comparable activity to TREgM, TREbM and TRExM

trastuzumab
cytotoxic activity (in words) [2]: very low cytotoxic activity | cytotoxic activity (in words) [4]: no cytotoxic activity | cytotoxic activity (in words) [5]: very low cytotoxic activity
